These are literature values, as cited in patent US10894960B2, “Compositions and methods for nucleic acid transfer” (Children's Hospital Medical Center, priority 2016, dated 2021).

Sequences of proteins named here, by UniProt entry; tags and fusion partners are left off.
UniProt P09874, whole entry, species assumed: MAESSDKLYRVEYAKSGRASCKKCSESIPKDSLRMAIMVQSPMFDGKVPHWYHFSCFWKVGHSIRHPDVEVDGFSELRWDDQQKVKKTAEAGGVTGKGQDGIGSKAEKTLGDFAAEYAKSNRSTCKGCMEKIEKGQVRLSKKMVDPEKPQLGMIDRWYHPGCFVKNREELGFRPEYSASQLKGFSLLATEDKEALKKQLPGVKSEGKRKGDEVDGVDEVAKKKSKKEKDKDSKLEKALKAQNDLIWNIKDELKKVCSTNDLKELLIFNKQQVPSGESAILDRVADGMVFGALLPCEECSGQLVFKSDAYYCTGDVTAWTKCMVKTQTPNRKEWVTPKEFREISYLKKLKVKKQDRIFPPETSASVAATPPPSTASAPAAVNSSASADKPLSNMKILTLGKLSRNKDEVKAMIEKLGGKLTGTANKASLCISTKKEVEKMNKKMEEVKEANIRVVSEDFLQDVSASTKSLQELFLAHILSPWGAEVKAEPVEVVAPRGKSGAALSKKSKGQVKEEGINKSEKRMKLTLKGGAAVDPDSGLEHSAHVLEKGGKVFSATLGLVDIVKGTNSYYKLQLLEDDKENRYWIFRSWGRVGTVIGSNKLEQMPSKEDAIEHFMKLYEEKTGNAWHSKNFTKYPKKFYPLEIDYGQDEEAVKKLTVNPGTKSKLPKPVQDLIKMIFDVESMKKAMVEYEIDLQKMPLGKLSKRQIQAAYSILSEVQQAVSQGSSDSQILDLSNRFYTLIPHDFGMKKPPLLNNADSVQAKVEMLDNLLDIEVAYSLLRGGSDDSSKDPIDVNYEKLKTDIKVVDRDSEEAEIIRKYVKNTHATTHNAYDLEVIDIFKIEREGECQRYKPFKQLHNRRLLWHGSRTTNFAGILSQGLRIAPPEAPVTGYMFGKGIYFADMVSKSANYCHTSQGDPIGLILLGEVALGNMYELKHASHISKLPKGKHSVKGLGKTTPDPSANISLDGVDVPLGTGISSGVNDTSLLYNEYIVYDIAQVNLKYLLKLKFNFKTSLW

The data set deals with PARP-1 (Homo sapiens, UniProt P09874). The following applies: Target PARP-1, gene symbol PARP1.

Molecules are shown by their SMILES.

Consider `O=c1[nH]cnc2c1ncn2[C@@H]1O[C@H](CO)[C@@H](O)[C@H]1O` [INO 1001], for which the Effect result is on record as “Inhibition”.
